From patent US20080161557A1, “Synthesis of 2-Methyl-4-(4-Methyl-1-Piperazinly)-10H-Thieno(2,3-B) (1,5) Benzodiazepine and Salts Thereof” (LEK PHARMACEUTICALS D.D., priority 2004, published 2008)

Experiment: Aqueous solubility of prepared oxalic acid addition salt of olanzapine
Format: physicochemical

With “olanzapine oxalate [oxalic acid addition salt of olanzapine]” the Aqueous solubility was “up to 800 mg/ml”.
